Read-outs that look alike come from different tables or passages of the source.
Assays:
[1] = target: B*5301 (Homo sapiens, UniProt P01889, A329T/A93T/A95T/C349S/D201E/D98Y/E176V/E187L/E204Q/E69T/G107R/I218V/K202T/L105A/L119I/N104I/Q94N/R106L/R155S/R180L/S101N/S121R/S35A/S48A/T118I/V127L/V306I/V36M/Y140S/Y91F); experiment: biochemical
[2] = target: B*3501 (Homo sapiens, UniProt P01889, A329T/A93T/A95T/C349S/D201E/D98Y/E176V/E187L/E204Q/E69T/I218V/K202T/L119I/Q94N/R155S/R180L/S121R/S35A/S48A/T118I/V127L/V306I/V36M/Y140S/Y91F); experiment: biochemical
[3] = target: B*5401 (Homo sapiens, UniProt P01889, A329T/C349S/D138N/D201E/E176V/E187T/E204Q/E69G/I76V/K202T/L119W/R155S/R180L/S121T/S35A/S48A/V127L/V306I/V36M/Y140L); experiment: biochemical
[4] = target: B*0701 (Homo sapiens, UniProt P01889); experiment: biochemical; details: B*0701 (nM), binding of B7-like supermotif 10-mer peptides to purified HLA-B*0701
[5] = target: DR7 (DRB1*0701) (Homo sapiens, UniProt P01903+P01911, A100R/A102G/A103Q/D57E/D86V/E43K/F76Y/K127E/L162R/M171V/P40G/Q125H/Q99D/R33Q/R42Y/R54Q/S133A/S66F/T210M/V115G/Y107V/Y59L/Y89S); details: read-out: DRB1*0701
[6] = target: DRB1*0901 (Homo sapiens, UniProt P01903+P01911, A100R/A103E/D57H/D86V/F55Y/F60I/F76Y/I96F/K127E/L162R/M171V/P40D/Q125H/Q99R/R33Q/R42F/S133A/S66N/T210M/V115G/W38K/Y107V/Y59G/Y89S); details: read-out: DRB1*0901
[7] = target: DRB1*1101 (Homo sapiens, UniProt P01903+P01911, A100R/A169T/A87E/I96F/K41T/L162R/M171V/P40S/Q125H/Q178H/Q39Y/Q99D/R42S/S66Y/T262R/V115G/W38E); details: read-out: DRB1*1101
[8] = target: A*2902 (Homo sapiens, UniProt P04439, A270S/D101N/D185E/E176V/E277Q/E87Q/F33T/G231S/H175R/I121M/I218V/I322F/K168Q/L300P/L318F/M331R/P208A/P217A/Q86L/T323A/T345S/V100A/V358M); experiment: biochemical; format: binding
[9] = target: A*3002 (Homo sapiens, UniProt P04439, D101N/D140H/D185E/E176R/F33S/G80R/H175R/K168Q/Q94H/R138E/R41S/V100E); experiment: biochemical; format: binding
[10] = target: A*0206 (Homo sapiens, UniProt P04439, D140Y/D185E/D98H/E176V/E277Q/F33Y/G131W/G231S/I119V/I121R/I166T/I218V/L300P/L318F/N151K/N90K/P208A/P217A/Q86G/Q94H/R138H/R169H/T345S); experiment: biochemical; format: binding
[11] = target: A*6802 (Homo sapiens, UniProt P04439, A269V/D140Y/D185E/E176V/E277Q/E87N/F33Y/G231S/I121R/I166T/I218V/L180W/L300P/L318F/N151K/P208A/P217A/Q86R/R138H/R169H/S129P/T345S/V36M); experiment: biochemical; format: binding
[12] = target: HLA-A*0201 (HLA-A2.1) (Homo sapiens, UniProt P04439, D140Y/D185E/D98H/E176V/E277Q/G131W/G231S/I119V/I121R/I166T/I218V/L300P/L318F/N151K/N90K/P208A/P217A/Q86G/Q94H/R138H/R169H/T345S); experiment: biochemical
[13] = target: A*0202 (Homo sapiens, UniProt P04439, D140Y/D185E/D98H/E176V/E277Q/G131W/G231S/I119L/I121R/I166T/I218V/L180W/L300P/L318F/N151K/N90K/P208A/P217A/Q67R/Q86G/Q94H/R138H/R169H/T345S); experiment: biochemical
[14] = target: A*2601 (Homo sapiens, UniProt P04439, A114D/A173T/A270S/D101N/D185E/E277Q/E87N/F33Y/G231S/I121R/I218V/K168Q/L180W/L300P/L318F/P208A/P217A/Q86R/Q94H/R138Q/S129P/T187R/T323A/T345S/V100A/V358M); experiment: biochemical; format: binding
[15] = target: HLA-A1 (A*0101) (Homo sapiens, UniProt P04439, A114D/A174V/A182V/D101N/D185E/E176A/E190D/L180R/Q94H/R68K/S129P/T187R/V100A/V91M/W191G); experiment: biochemical
[16] = target: B*4501 (Homo sapiens, UniProt P01889, A329T/A65T/A93T/A95T/C349S/D138N/D201E/D98Y/E176V/E187L/E204Q/E69K/H137Y/K202T/L119W/N87E/Q56L/Q94N/R155S/R180D/S121R/S35A/S48T/V127L/V306I/V36M/W191S/Y140L/Y33H/Y91S); experiment: biochemical; format: binding

With CC(C)C[C@H](NC(=O)[C@@H]1CCCN1C(=O)[C@H](Cc1ccccc1)NC(=O)[C@H](CCC(N)=O)NC(=O)[C@@H]1CCCN1C(=O)[C@H](CCCNC(=N)N)NC(=O)[C@@H](NC(=O)[C@@H]1CCCN1C(=O)[C@@H](N)Cc1ccccc1)C(C)C)C(=O)O as the compound, how does the IC50 [1] read?
Its IC50 is 319 nM.

For CC[C@H](C)[C@H](NC(=O)CNC(=O)[C@H](CCCCN)NC(=O)[C@H](CC(=O)O)NC(=O)[C@H](CC(C)C)NC(=O)[C@@H]1CCCN1C(=O)[C@@H](N)CC(C)C)C(=O)N[C@@H](CCCCN)C(=O)N1CCC[C@H]1C(=O)N[C@@H](Cc1ccc(O)cc1)C(=O)O [15.210], which IC50 [2] is on record?
Its IC50 is 548 nM.

Which results are given for CC[C@H](C)[C@H](NC(=O)[C@H](CO)NC(=O)[C@H](Cc1ccccc1)NC(=O)[C@H](CO)NC(=O)[C@H](CS)NC(=O)CNC(=O)[C@@H]1CCCN1C(=O)[C@@H](N)CC(C)C)C(=O)N[C@@H](Cc1ccccc1)C(=O)N[C@@H](CC(C)C)C(=O)O [15.220]?
IC50 [2]: 8000 nM; IC50 ([1]; B*5301 (nM)): 686 nM; IC50 [3]: 8430 nM

For CC[C@H](C)[C@H](NC(=O)[C@@H](NC(=O)[C@H](Cc1ccccc1)NC(=O)[C@H](CC(N)=O)NC(=O)[C@@H](NC(=O)[C@@H](NC(=O)[C@H](CS)NC(=O)[C@@H]1CCCN1C(=O)[C@@H](N)Cc1ccc(O)cc1)[C@@H](C)O)C(C)C)[C@@H](C)O)C(=O)N[C@@H](Cc1ccccc1)C(=O)O [15.225], which IC50 ([1]; B*5301 (nM)) is on record?
Its IC50 is 257 nM.

CC[C@H](C)[C@H](NC(=O)[C@H](CC(N)=O)NC(=O)[C@@H](NC(=O)[C@@H]1CCCN1C(=O)[C@@H](N)[C@@H](C)O)C(C)C)C(=O)N[C@H](C(=O)NCC(=O)N[C@@H](CCCNC(=N)N)C(=O)N[C@@H](CC(N)=O)C(=O)N[C@@H](CC(C)C)C(=O)O)[C@@H](C)CC [15.251] was tested. Which IC50 [4] did it give?
The IC50 was 152 nM.

What about the IC50 [2] of the same compound?
Its IC50 is 18000 nM.

How did the IC50 [5] turn out when CC[C@H](C)[C@H](N)C(=O)N[C@@H](CCCNC(=N)N)C(=O)N[C@@H](CS)C(=O)N[C@H](C(=O)N[C@H](C(=O)N[C@@H](CS)C(=O)N[C@@H](CCC(N)=O)C(=O)N[C@H](C(=O)N1CCC[C@H]1C(=O)N[C@@H](CC(C)C)C(=O)N[C@@H](CS)C(=O)N1CCC[C@H]1C(=O)N[C@@H](CCC(=O)O)C(=O)N[C@@H](CCC(=O)O)C(=O)N[C@@H](CCCCN)C(=O)O)[C@@H](C)O)[C@@H](C)CC)[C@@H](C)CC [Peptide 85.0044] was run?
Its IC50 is 25200 nM.

What about the IC50 [6] of the same compound?
The IC50 was 28100 nM.

What about the IC50 [7] of the same compound?
Its IC50 is 5460 nM.

For CSCC[C@H](NC(=O)[C@@H](N)C(C)C)C(=O)N[C@@H](C)C(=O)NCC(=O)N[C@H](C(=O)NCC(=O)N[C@@H](CO)C(=O)N1CCC[C@H]1C(=O)N[C@@H](Cc1ccc(O)cc1)C(=O)O)C(C)C [Peptide 1215.02], which IC50 [8] is on record?
The IC50 was 91 nM.

And the IC50 [9]?
The IC50 was 7.6 nM.

How did the IC50 [10] turn out when CC(C)C[C@H](NC(=O)[C@H](C)N)C(=O)N1CCC[C@H]1C(=O)N1CCC[C@H]1C(=O)N[C@H](C(=O)N[C@@H](C)C(=O)N1CCC[C@H]1C(=O)N[C@H](C(=O)O)C(C)C)C(C)C [Peptide 1323.01] was run?
Its IC50 is 789 nM.

What about the IC50 [11] of the same compound?
Its IC50 is 165 nM.

What about the IC50 [12] of the same compound?
Its IC50 is 346 nM.

What about the IC50 [13] of the same compound?
Its IC50 is 672 nM.

CC(C)[C@H](NC(=O)[C@H](CO)NC(=O)[C@H](CCCCN)NC(=O)[C@H](CC(=O)O)NC(=O)[C@@H](NC(=O)CN)[C@@H](C)O)C(=O)N[C@H](C(=O)N[C@@H](CS)C(=O)N[C@H](C(=O)N[C@@H](Cc1ccc(O)cc1)C(=O)O)[C@@H](C)O)[C@@H](C)O [Peptide 1598.01] was tested. Which IC50 [14] did it give?
Its IC50 is over 20000 nM.

And the IC50 [8]?
The IC50 was 4750 nM.

And the IC50 [9]?
Its IC50 is 1890 nM.

And the IC50 [15]?
Its IC50 is 412 nM.

CSCC[C@H](N)C(=O)N[C@H](C(=O)N[C@@H](CC(=O)O)C(=O)N[C@@H](CC(C)C)C(=O)N[C@H](C(=O)N[C@@H](CCC(N)=O)C(=O)N[C@@H](CCC(=O)O)C(=O)N[C@@H](CC(N)=O)C(=O)N[C@@H](Cc1ccc(O)cc1)C(=O)O)C(C)C)[C@@H](C)O [Peptide 1610.01] was tested. Which IC50 [14] did it give?
The IC50 was 659 nM.

What about the IC50 [8] of the same compound?
Its IC50 is 460 nM.

What about the IC50 [9] of the same compound?
The IC50 was 2360 nM.

What about the IC50 [15] of the same compound?
The IC50 was 7.1 nM.

Which IC50 [16] does the source give for CC[C@H](C)[C@H](NC(=O)[C@H](Cc1ccc(O)cc1)NC(=O)[C@H](CC(C)C)NC(=O)[C@H](Cc1ccc(O)cc1)NC(=O)CNC(=O)[C@@H](NC(=O)[C@@H](NC(=O)[C@H](CCC(=O)O)NC(=O)[C@@H](N)CCC(=O)O)[C@@H](C)CC)[C@@H](C)O)C(=O)N[C@@H](CO)C(=O)N[C@@H](C)C(=O)N[C@@H](Cc1c[nH]c2ccccc12)C(=O)O [Peptide 9002.0342] here?
Its IC50 is 1490 nM.

How did the IC50 [16] turn out when CC[C@H](C)[C@H](NC(=O)[C@@H]1CCCN1C(=O)[C@@H](NC(=O)[C@H](CCCCN)NC(=O)CNC(=O)CNC(=O)[C@H](CC(=O)O)NC(=O)[C@H](C)NC(=O)[C@H](Cc1c[nH]cn1)NC(=O)[C@H](Cc1ccc(O)cc1)NC(=O)[C@H](CCC(=O)O)NC(=O)[C@@H](N)[C@@H](C)O)C(C)C)C(=O)O [Peptide 9002.0345] was run?
Its IC50 is 61 nM.

CC(C)C[C@H](NC(=O)[C@H](Cc1ccc(O)cc1)NC(=O)[C@H](CCC(=O)O)NC(=O)[C@H](CCC(=O)O)NC(=O)[C@H](C)N)C(=O)N[C@H](C(=O)N1CCC[C@H]1C(=O)N[C@@H](CCC(N)=O)C(=O)N[C@@H](CCC(N)=O)C(=O)NCC(=O)N[C@@H](Cc1ccccc1)C(=O)N[C@@H](Cc1ccccc1)C(=O)O)C(C)C [Peptide 9002.0347] was tested. Which IC50 [16] did it give?
The IC50 was 13 nM.

With CC[C@H](C)[C@H](NC(=O)[C@@H](NC(=O)[C@@H]1CCCN1C(=O)[C@H](CC(=O)O)NC(=O)[C@H](CC(=O)O)NC(=O)[C@@H]1CCCN1C(=O)CNC(=O)[C@H](Cc1ccc(O)cc1)NC(=O)[C@H](CC(C)C)NC(=O)[C@H](CC(C)C)NC(=O)[C@@H](N)CC(N)=O)[C@@H](C)O)C(=O)O [Peptide 9013.0310] as the compound, how does the IC50 [13] read?
Its IC50 is 421 nM.

For CC(C)C[C@H](NC(=O)[C@@H](N)Cc1ccc(O)cc1)C(=O)N[C@H](C(=O)N[C@@H](C)C(=O)N[C@@H](Cc1ccc(O)cc1)C(=O)N[C@@H](CCC(N)=O)C(=O)N[C@@H](C)C(=O)N[C@H](C(=O)N[C@H](C(=O)O)C(C)C)[C@@H](C)O)C(C)C [Peptide 9016.0058], which IC50 [10] is on record?
The IC50 was 5.8 nM.

And the IC50 [11]?
Its IC50 is 47 nM.

And the IC50 [12]?
Its IC50 is 8.6 nM.

What about the IC50 [13] of the same compound?
Its IC50 is 0.49 nM.

— patent US9340577B2, “HLA binding motifs and peptides and their uses” (priority 1992, dated 2016)
